# According to US20220313640A1 (Concert Pharmaceuticals, Inc., priority 2019, published 2022):
# Assay: Single Ascending Dose (SAD) study plasma PK in healthy volunteers
# Format: in vivo, human
# Conditions: administration following consumption of food versus fasted
# Procedure: The 0.5, 2, 3, and 4 g doses were evaluated under fasted conditions (after an overnight fast) while the 1 g dose was evaluated under both fasted and fed conditions (within 30 minutes of consumption of a meal) in a crossover design. […] Blood samples for PK analysis were obtained at several time points after dose administration. Safety assessments included monitoring of adverse events and clinical laboratory testing including monitoring of kidney function.
smiles,measurement,value
"[2H][C@@](N)(CO)C(=O)O [Compound 100, (2R)-2-amino-2-deutero-3-hydroxy-propanoic acid]",food effect on rate of absorption,delayed tmax and lower Cmax
